{"source": "patent US20190241864A1", "about": "“Composition Comprising Non-Germinant and Bacterial Spores” (NOVOZYMES BIOAG A/S, priority 2016, published 2019)", "system": "Bacillus pumilus strain SB3189 spores", "test": "Microscopy of spores after L-valine treatment alone (phase-bright to phase-dark)", "details": "0.5, 3.0, or 10.0 mM for 24 hours at 4° C. or 22° C.", "data": [{"molecule": "CC(C)[C@H](N)C(=O)O", "note": "[L-valine]", "values": [{"measurement": "germination as a result of L-valine treatment alone, by microscopy", "value": "No germination of the spores occurred"}]}]}
